This test deals with Hypercholesterolemic rats. The experiment in a line: Cholesterol lowering in hypercholesterolemic rats. The conditions noted are these: delivered p.o. (0.2 mg/kg/d); percentage change from pre-dose cholesterol. The class given is in vivo, rat.

As to `CC(C)c1cc(Oc2c(Br)cc(NCP(=O)(O)O)cc2Br)ccc1O`, the “% Cholesterol Lowering” value is given as −19.9%.
